Among the data in patent US6926936B2, “Ink-jet recording sheet with improved ozone resistance” (Felix Schoeller Jr. Foto-und Spezialpapiere GmbH & Co. KG, priority 2002, dated 2005) are pKb and Kb values, retold here.

Usually pKb stands for −log10 of the Kb, conventionally taken in molar units. Low values mean a large Kb, high ones a small Kb.

The data set can be described thus: Dissociation constant (Kb, pKb) of the water-soluble compounds.

The substance Na citrate dihydrate had a pKb of 10.4. Moreover, the Kb (dissociation constant) was 3.80 × 10^−11.
